SMARCA2 activ = SMARCA2 (BRM) function activators, primary screen, cell-based, luminescence, high throughput; MG213 cells, MMTV-luciferase reporter, dexamethasone, overnight; 370,000 compounds, 1% hits; activation, % at 9.1 µM; in the data active means activation above about 7.8%;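 further: 0% = vehicle wells and 100% = reference activator wells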
UUG fidelity = yeast start codon fidelity modulation. S. cerevisiae UUG-firefly luciferase reporter, luminescence/redox ratio. activity score, % at 18.7 µM. 0.13% of 350,000 active;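 active means replicate mean at a twofold rise or more, about +100% in these data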;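 further: firefly luciferase made from a UUG start codon reports start codon fidelity; reporter light over untreated wells divided by growth signal over untreated wells; some hits fall short of that in this replicate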
ERp5 block = inhibitors of ERp5-driven insulin aggregation, primary screen, biochemical, turbidity, absorbance 650 nm, single point; Protein disulfide-isomerase A6 (Homo sapiens), Q15084; 90 min; inhibition, % at 9.99 µM; 350,000 compounds, 0.05% hits;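 active means mean replicate inhibition above about 25%, with every replicate also reaching it, limit read from the data, passing the limit was not always enough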
GSIS activator = GLuc luminescence reporter in INS-1E cells, primary screen for activators of glucose-dependent secretion of insulin; 370,000 compounds, 0.61% hits; INS-1E GLuc reporter insulin secretion, 2-3 h; activation, % at 16.6 µM; AID 743287, 2014;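 active means lowest replicate activation of at least 40%, so every replicate reaches that level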;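 further: 0% = median of neutral control wells and 100% = median of IBMX positive control wells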
NR1D1 modulator = modulators of Rev-erb alpha DNA binding, primary screen, biochemical, FITC-DNA, fluorescence polarization, uHTS; Nuclear receptor subfamily 1 group D member 1 (Homo sapiens), P20393; 370,000 compounds, 0.79% hits; AID 1259318, 2017; Rev-erbα–FITC-DNA binding, 90 min; activity, % at 10 µM;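 active means activity above about 14%, limit read from the data; passing the limit was not always enough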;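 further: 0% = DMSO wells with 35 nM protein and 100% = DMSO wells with 750 nM protein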
PDI turbidity = inhibitors of human PDI, primary screen, biochemical, turbidity, single point, plate reader; AID 588391, 2011; inhibition, % at 10 µM; PDI insulin aggregation turbidity, A650, 90 min; 350,000 compounds, 0.052% hits; Protein disulfide-isomerase (Homo sapiens), P07237;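 active means mean inhibition across replicates of 30% or more, whatever share of single replicates reach that level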
SMARCA2 conf = SMARCA2 (BRM) function activators, confirmation, cell-based, luminescence, triplicate; activation, % at 9.1 µM; shares compounds with SMARCA2 activ; MG213 cells, MMTV-luciferase with dexamethasone, overnight; MG213 cells expressing E1A, Rb sequestered; DMSO wells 0%, reference activator 100%; AID 652260, 2013; 3,500 compounds, 30% hits;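 active means activation above its plate's cutoff, the mean activation of tested wells plus 3 SD, cut at about 7.9% in these data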
GAL4-VP16 Luc = GAL4-VP16 luciferase reporter activation, counter-screen for SMARCA2 (BRM) activator project, cell-based, pG5luc, luminescence, high throughput; shares compounds with SMARCA2 activ; HEK293 GAL4-VP16 pG5luc reporter; scaled: DMSO wells 0%, SAHA wells 100%; activation, % at 9.1 µM; 3,500 compounds, 41% hits; AID 686939, 2013;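 active means activation above the solvent-only control well mean plus 3 SD, averaged across control plates, cut at about 5.2% in these data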
An asterisk follows results filed as active; . = not tested or not shown. In the library only some 2.1% were active in any assay of this set; here they are far more common.

By UniProt entry, the sequences of proteins in these tests, tags left out.
Protein disulfide-isomerase A6 (Homo sapiens), Q15084, UniProt Q15084, whole entry, looked up: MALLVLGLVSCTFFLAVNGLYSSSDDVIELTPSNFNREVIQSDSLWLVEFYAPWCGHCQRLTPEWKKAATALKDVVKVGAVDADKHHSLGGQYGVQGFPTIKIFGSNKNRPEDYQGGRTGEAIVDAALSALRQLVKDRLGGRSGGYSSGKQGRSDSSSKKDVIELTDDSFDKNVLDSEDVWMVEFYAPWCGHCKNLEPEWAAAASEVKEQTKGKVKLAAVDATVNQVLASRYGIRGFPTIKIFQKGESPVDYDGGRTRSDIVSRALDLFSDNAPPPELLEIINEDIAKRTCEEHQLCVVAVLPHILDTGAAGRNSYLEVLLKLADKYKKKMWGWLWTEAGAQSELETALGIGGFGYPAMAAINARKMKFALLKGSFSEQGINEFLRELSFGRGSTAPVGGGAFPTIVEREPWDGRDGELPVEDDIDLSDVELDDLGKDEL
Protein disulfide-isomerase (Homo sapiens), P07237, UniProt P07237, whole entry, looked up: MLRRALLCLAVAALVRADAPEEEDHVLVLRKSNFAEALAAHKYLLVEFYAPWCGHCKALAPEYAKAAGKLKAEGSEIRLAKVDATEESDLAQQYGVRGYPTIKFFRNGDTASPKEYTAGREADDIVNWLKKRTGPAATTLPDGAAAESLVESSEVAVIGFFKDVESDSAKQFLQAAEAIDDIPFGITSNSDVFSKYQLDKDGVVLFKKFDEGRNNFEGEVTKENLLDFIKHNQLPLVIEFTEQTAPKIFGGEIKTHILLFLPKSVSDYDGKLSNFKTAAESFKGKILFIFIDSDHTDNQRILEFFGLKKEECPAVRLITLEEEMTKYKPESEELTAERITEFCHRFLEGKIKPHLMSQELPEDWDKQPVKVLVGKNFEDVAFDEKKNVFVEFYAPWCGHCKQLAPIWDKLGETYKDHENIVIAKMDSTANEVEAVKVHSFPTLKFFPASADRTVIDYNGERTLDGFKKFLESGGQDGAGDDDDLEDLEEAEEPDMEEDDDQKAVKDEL

Sample of the layout, three compounds:
Short keys: A = SMARCA2 activ; B = UUG fidelity; C = ERp5 block; D = GSIS activator; E = NR1D1 modulator; F = PDI turbidity; G = SMARCA2 conf; H = GAL4-VP16 Luc
1) C[C@@H]1CCCCO[C@H](CN(C)S(=O)(=O)c2ccc(Cl)cc2)[C@@H](C)CN([C@H](C)CO)C(=O)c2cc(NC(=O)CCCN(C)C)ccc2O1
  A = .; B = 4.6; C = 3.3; D = -2.4; E = .; F = .; G = .; H = .

2) Cc1ccc(S(=O)(=O)Nc2nc3ccccc3nc2NCc2ccco2)cc1
  A = 8.7*; B = .; C = .; D = .; E = -2.7; F = -1.4; G = 21.8*; H = 19.0*

3) CN(C)S(=O)(=O)c1ccc2nc(NC(=O)c3cccnc3)sc2c1
  A = 3.9; B = -9.2; C = .; D = .; E = -3.8; F = -3.3; G = .; H = .

The whole of this part, from the start:
Short keys: A = SMARCA2 activ; B = UUG fidelity; C = ERp5 block; D = GSIS activator; E = NR1D1 modulator; F = PDI turbidity; G = SMARCA2 conf; H = GAL4-VP16 Luc
1) C[C@@H]1CCCCO[C@H](CN(C)S(=O)(=O)c2ccc(Cl)cc2)[C@@H](C)CN([C@H](C)CO)C(=O)c2cc(NC(=O)CCCN(C)C)ccc2O1
  A = .; B = 4.6; C = 3.3; D = -2.4; E = .; F = .; G = .; H = .

2) Cc1ccc(S(=O)(=O)Nc2nc3ccccc3nc2NCc2ccco2)cc1
  A = 8.7*; B = .; C = .; D = .; E = -2.7; F = -1.4; G = 21.8*; H = 19.0*

3) CN(C)S(=O)(=O)c1ccc2nc(NC(=O)c3cccnc3)sc2c1
  A = 3.9; B = -9.2; C = .; D = .; E = -3.8; F = -3.3; G = .; H = .

4) CC(=O)Nc1ccc2nc(NC(=O)c3cccnc3)sc2c1
  A = 10.9*; B = .; C = -2.3; D = 6.1; E = -0.4; F = -0.4; G = 10.3*; H = 4.2

5) CNc1cccc(-c2ccc(N3CCN(C)CC3)nc2)n1
  A = 9.1*; B = -18.5; C = -3.8; D = 1.0; E = -6.5; F = 6.4; G = 11.7*; H = 7.7*

6) CNc1cccc(-c2ccc(C(=O)N3CCOCC3)cc2)n1
  A = 10.3*; B = -23.7; C = 2.9; D = 3.5; E = 3.8; F = 4.3; G = 7.7; H = 0.0

7) Cc1ccc(S(=O)(=O)Nc2ccc(N3CCN(C)CC3)nc2)cc1
  A = 1.9; B = -5.5; C = 1.9; D = 5.0; E = -2.8; F = -3.6; G = .; H = .

8) COc1ccc(C(C(=O)N(C)C2CCCC2)N(Cc2ccc(F)cc2)C(=O)c2ncn[nH]2)cc1OC (stereo not drawn)
  A = -5.8; B = .; C = .; D = .; E = -3.9; F = .; G = .; H = .

9) COc1ccc(C(C(=O)N(C)C2CCCC2)N(Cc2ccc(F)cc2)C(=O)c2cc(C)[nH]n2)cc1OC (stereo not drawn)
  A = 10.8*; B = .; C = .; D = .; E = 4.5; F = .; G = 3.9; H = 0.5

10) CSc1nc(SCCN(C)C)c2c3c(sc2n1)COC(C)(C)C3
  A = 8.1*; B = .; C = -0.6; D = 5.9; E = 3.2; F = 13.4; G = 4.6; H = 0.6

11) CCC1CCCCN1CCCNC(=O)c1ccc2nc(N3CCCCC3)sc2c1 (stereo not drawn)
  A = 2.9; B = -9.6; C = -1.4; D = 18.3; E = -3.3; F = -0.3; G = .; H = .

12) CC1CC(C)CN(CCCNC(=O)c2ccc3nc(N4CCCCC4)sc3c2)C1 (stereo not drawn)
  A = 5.1; B = -5.6; C = 3.9; D = -0.6; E = 0.5; F = 9.8; G = .; H = .

13) COc1ccc(CCNC(=O)c2ccc3nc(N4CCCCC4)sc3c2)cc1OC
  A = 10.1*; B = -20.2; C = 0.7; D = 3.5; E = -8.0; F = -3.6; G = 2.9; H = 8.5*

14) CC1CCN(c2nc3ccc(C(=O)NCCCN4CCCCC4C)cc3s2)CC1 (stereo not drawn)
  A = 8.1*; B = -41.2; C = -0.2; D = 10.7; E = 0.9; F = 10.0; G = 15.4*; H = 14.6*

15) CCCN1CCN(CCCNC(=O)c2ccc3nc(N4CCCCC4)sc3c2)CC1
  A = 13.5*; B = -7.1; C = -6.8; D = 8.7; E = -2.6; F = -3.2; G = 13.6*; H = 13.0*

16) CC1CCCC(C)N1CCCNC(=O)c1ccc2nc(N3CCCCC3)sc2c1 (stereo not drawn)
  A = 17.6*; B = -13.1; C = 2.6; D = 7.0; E = 2.5; F = -4.6; G = 9.8*; H = 17.4*

17) COc1ccc2nc(N3CCCC(C(=O)NCCc4ccc(OC)c(OC)c4)C3)sc2c1 (stereo not drawn)
  A = 1.0; B = 0.4; C = 0.9; D = 5.1; E = 1.9; F = 6.6; G = .; H = .

18) CS(=O)(=O)N1CC2(C1)[C@@H](c1ccccc1)[C@H](CO)N2C(=O)C1CCC1
  A = .; B = .; C = -2.4; D = 25.5; E = .; F = .; G = .; H = .

19) CCCC#Cc1cnc2c(c1)C(=O)N([C@@H](C)CO)C[C@@H](C)[C@H](CN(C)C(=O)Cc1cccnc1)O2
  A = .; B = -4.4; C = 6.1; D = -6.6; E = .; F = .; G = .; H = .

20) Cn1c(C(=O)NC2CCCCC2)cc2sccc21
  A = 1.6; B = -18.0; C = .; D = .; E = 3.2; F = 5.9; G = .; H = .

21) CN(C(=O)c1cc2sccc2n1C)C1CCCCC1
  A = 8.9*; B = 2.5; C = .; D = 10.9; E = -5.5; F = 0.8; G = 1.6; H = 7.5*

22) O=C(Nc1ccc(N2CCN(C(=O)c3ccco3)CC2)cc1)c1ccc(F)cc1
  A = -1.9; B = -11.6; C = .; D = -8.0; E = .; F = 1.6; G = .; H = .

23) O=C(c1ccco1)N1CCN(c2ccc(F)cc2)CC1
  A = 18.4*; B = .; C = -0.5; D = 12.8; E = 3.2; F = -4.0; G = 2.4; H = 5.8*

24) COc1cc(/C=C2/CC/C(=C/c3ccc(O)c(OC)c3)C2=O)ccc1O
  A = -2.8; B = .; C = 1.8; D = -7.9; E = -1.8; F = 0.0; G = .; H = .

25) COc1cc(/C=C2\COC/C(=C\c3ccc(O)c(OC)c3)C2=O)ccc1O
  A = 13.2*; B = -8.8; C = -1.2; D = .; E = -2.5; F = -2.8; G = 3.9; H = -0.8

26) C[C@@H]1CN([C@@H](C)CO)S(=O)(=O)c2ccc(C3=CCCCC3)cc2O[C@H]1CN(C)C(=O)CN(C)C
  A = .; B = 19.9; C = 0.9; D = 5.2; E = .; F = .; G = .; H = .

27) CO[C@@H]1CN(C)C(=O)c2ccc(NS(=O)(=O)c3ccc(F)cc3)cc2OC[C@@H](C)N(C(=O)NC(C)C)C[C@H]1C
  A = .; B = 14.5; C = -2.6; D = 0.9; E = .; F = .; G = .; H = .

28) Oc1c(N=Nc2ccc(F)cc2)ccc2ccccc12
  A = 10.8*; B = -18.1; C = -4.4; D = 7.0; E = 6.2; F = -9.0; G = 4.0; H = 8.6*

29) COc1cccc(N=Nc2ccc3ccccc3c2O)c1
  A = 8.0*; B = -25.7; C = -2.9; D = 6.2; E = 1.1; F = -3.1; G = 2.6; H = 5.6*

30) Cc1ccc(N=Nc2ccc3ccccc3c2O)cc1
  A = -2.8; B = -56.0; C = -0.6; D = -5.4; E = 2.8; F = 0.5; G = .; H = .

31) C=C[C@@]1(C)CC(=O)[C@]2(O)[C@@]3(C)[C@@H](O)CCC(C)(C)[C@@H]3[C@H](O)[C@H](OC(C)=O)[C@@]2(C)O1
  A = 20.6*; B = -16.2; C = 1.0; D = 98.8*; E = -0.6; F = 1.4; G = 20.7*; H = 25.0*

32) COc1ccc(NC(=O)COc2cccnc2[N+](=O)[O-])cc1OC
  A = -1.3; B = -17.9; C = 4.3; D = 4.2; E = -5.0; F = 4.1; G = .; H = .

33) O=C(COc1cccnc1[N+](=O)[O-])Nc1cccc(Br)c1
  A = 10.7*; B = -7.5; C = -4.2; D = 5.2; E = 1.1; F = -13.3; G = 6.6; H = 4.6

34) C[C@H](CO)N1C[C@H](C)[C@H](CN(C)C(=O)C2CCCCC2)Oc2ncc(C#CC3CCCC3)cc2C1=O
  A = .; B = 12.8; C = 2.2; D = -16.0; E = .; F = .; G = .; H = .

35) CC(C)[C@H]1C(=O)N[C@@H](c2cccc(Cl)c2)CC=CC[C@H](C)Oc2ccccc2C(=O)N1C (mixture of isomers)
  A = .; B = .; C = .; D = -19.7; E = .; F = .; G = .; H = .

36) O=C(C[C@H]1CC[C@@H]2[C@H](COC[C@@H](O)CN2C(=O)Nc2cccc(Cl)c2)O1)NCC1CCCCC1
  A = .; B = 0.3; C = 1.4; D = -21.5; E = .; F = .; G = .; H = .

37) c1ccc(-c2cnc(-c3cccnc3)o2)cc1
  A = 0.8; B = -2.4; C = .; D = 25.8; E = 0.3; F = 15.5; G = .; H = .

38) NC(=O)c1ccc(-c2ncc(-c3ccccc3)o2)cc1
  A = 18.3*; B = .; C = .; D = 10.6; E = 5.4; F = -6.1; G = 17.4*; H = 11.0*

39) O=C(NC1CCCCCC1)C(=S)NCCc1ccccc1
  A = -3.0; B = -11.1; C = 1.1; D = -7.3; E = -2.5; F = -1.7; G = .; H = .

From PubChem
